# Measured values: patent US6645969B1, “Aryl and heteroaryl quinazoline compounds which inhibit CSF-1R receptor tyrosine kinase” (Aventis Pharmaceuticals Inc., priority 1991, dated 2003)
# By UniProt entry, the sequences of proteins in these tests, tags left out. Residues count along the entry.
# UniProt P06239, whole entry: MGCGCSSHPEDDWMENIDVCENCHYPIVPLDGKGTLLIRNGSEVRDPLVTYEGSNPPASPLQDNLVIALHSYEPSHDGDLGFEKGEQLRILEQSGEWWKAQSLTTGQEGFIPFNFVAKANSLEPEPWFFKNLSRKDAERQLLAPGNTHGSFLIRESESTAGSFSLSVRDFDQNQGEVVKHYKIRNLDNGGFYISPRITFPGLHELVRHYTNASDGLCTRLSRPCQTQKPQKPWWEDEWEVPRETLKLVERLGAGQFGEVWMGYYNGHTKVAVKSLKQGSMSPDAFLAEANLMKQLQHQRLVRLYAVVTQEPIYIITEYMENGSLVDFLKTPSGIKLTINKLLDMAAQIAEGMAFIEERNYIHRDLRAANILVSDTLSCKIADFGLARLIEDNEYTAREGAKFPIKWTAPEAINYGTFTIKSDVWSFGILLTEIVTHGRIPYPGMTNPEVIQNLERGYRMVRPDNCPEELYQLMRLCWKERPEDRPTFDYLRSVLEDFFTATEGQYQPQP
# UniProt P07333, 20-972 limits assumed: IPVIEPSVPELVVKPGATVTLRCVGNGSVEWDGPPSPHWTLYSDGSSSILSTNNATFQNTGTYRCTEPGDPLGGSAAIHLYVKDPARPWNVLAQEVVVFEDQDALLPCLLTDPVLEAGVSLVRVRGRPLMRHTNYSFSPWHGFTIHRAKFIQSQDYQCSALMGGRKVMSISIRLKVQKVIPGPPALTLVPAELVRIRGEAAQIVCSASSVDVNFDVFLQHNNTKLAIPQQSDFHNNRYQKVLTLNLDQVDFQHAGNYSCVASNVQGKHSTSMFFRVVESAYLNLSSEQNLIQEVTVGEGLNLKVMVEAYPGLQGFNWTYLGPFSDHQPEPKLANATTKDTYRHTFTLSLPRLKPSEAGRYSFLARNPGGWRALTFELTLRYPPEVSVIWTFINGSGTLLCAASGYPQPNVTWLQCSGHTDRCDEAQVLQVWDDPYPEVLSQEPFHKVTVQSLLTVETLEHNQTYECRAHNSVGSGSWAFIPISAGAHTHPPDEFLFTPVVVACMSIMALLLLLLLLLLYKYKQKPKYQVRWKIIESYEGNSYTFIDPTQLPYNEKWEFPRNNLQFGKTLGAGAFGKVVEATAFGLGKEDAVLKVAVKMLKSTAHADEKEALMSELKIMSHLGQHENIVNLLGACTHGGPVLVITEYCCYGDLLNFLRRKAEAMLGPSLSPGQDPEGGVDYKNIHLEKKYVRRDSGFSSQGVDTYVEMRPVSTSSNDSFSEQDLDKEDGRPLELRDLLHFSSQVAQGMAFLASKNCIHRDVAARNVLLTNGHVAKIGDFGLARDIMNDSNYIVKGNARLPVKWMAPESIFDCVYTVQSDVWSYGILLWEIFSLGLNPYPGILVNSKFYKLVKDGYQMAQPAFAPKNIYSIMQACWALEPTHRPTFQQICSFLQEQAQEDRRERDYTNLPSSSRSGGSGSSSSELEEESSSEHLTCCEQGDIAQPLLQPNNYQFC
# What was measured:
# p56^Ick tyrosine kinase = p56^Ick tyrosine kinase (Homo sapiens, UniProt P06239); experiment: Ick kinase cell-free assay (immunoprecipitated from Jurkat lysate); type: biochemical; settings: read-out: Ick activity IC50
# CSF-1R tyrosine kinase = CSF-1R tyrosine kinase (Homo sapiens, UniProt P07333); experiment: CSF-1R cell-free autophosphorylation assay; settings: read-out: CSF-R activity IC50
smiles,measurement,setting,value
COc1cc2ncnc(Cc3ccccc3)c2cc1OC,IC50,p56^Ick tyrosine kinase,100 µM
same,IC50,CSF-1R tyrosine kinase,7 µM
